# Test results: US20230390363A1, “Compounds, Compositions and Methods of Use to Treat Spinal Fusions” (PURDUE RESEARCH FOUNDATION, priority 2020, published 2023)
# System: posterolateral spinal fusion of L4-L5
# Assay: Posterolateral spinal fusion of L4-L5 in rats: micro-CT and manual palpitation after treatment
# Format: in vivo, rat
# Protocol: FIG. 6, panels A-C show three-dimensional reconstructions of micro-CT scans of a posterolateral spinal fusion of L4-L5 in a rat treated with a plain collagen matrix and a compound of SEQ ID NO: 2 for eight weeks. In some embodiments, SEQ ID NO: 2 was dosed (e.g., in rodents) at 33 nmol/kg twice a week. […] FIG. 7, panels A-C show the three-dimensional reconstructions of micro-CT scans of a posterolateral spinal fusion of L4-L5 in a rat treated with a plain collagen matrix soaked with rhBMP-2 (10 μg) for eight weeks. In some embodiments, the collagen matrix was applied during surgery. […] In some embodiments, phosphate-buffered saline was dosed at a 1× concentration twice a week in the same volume as SEQ ID NO: 2. In some embodiments, manual palpitation confirmed no fusion in the phosphate-buffered saline-treated rats. […] Scores were assigned 0-5 on osteointegration, density, and bridging of both bilateral spinal fusions in microCT scans of the rats as determined by an individual who was blinded to the treatment and reviewed random samples. The total score is the sum of all five scores combined. […] The density of the scan was assigned based on a standard curve generated by a phantom hydroxyapatite standard set. A bilateral posterolateral lumbar spinal fusion was performed under aseptic conditions using isoflurane as an anesthetic. The skin surrounding the L2-L6 region on the back was shaved and disinfected using a Betadine solution followed by an alcohol pad. A 3-cm incision extending from the L3 to L6 vertebrae was made in the skin in this prepared area. The muscle on the vertebral body between the spinous process and the transverses process was bluntly dissected away from the vertebral body to expose the transverses processes. Using a low-speed burr, the L4 and L5 transverse processes cortical bone was removed in addition to the facia joint between the two vertebrae. The burr removed the surface layer of the bone. This process is known as decortication and was done to allow for direct regeneration of bone tissue. Following decortication, a drug-soaked collagen sponge was placed on each side of the vertebrae. A 5×7.5-mm collagen sponge was soaked to saturation in the drugs for 10 minutes. The collagen sponge (RCM6 membranes from ACE surgical supplies) served as a scaffold to aid in the fusion of the vertebrae. Mineralized collagen scaffolds (supplied by Houston Methodist, Houston, TX) and collagen scaffolds wrapped around anorganic bone granules (InterOss bone granules; SigmaGraft Inc. Biomaterials, Fullerton, CA) were also separately used. The inter-muscle was closed with resorbable sutures. The exterior wound was then sutured closed using a nylon suture. Subcutaneous buprenorphine (0.05-0.1 mg/kg) was then administered directly after the operation and was repeated every 12 hours for the next 3 days post-surgery. Fracture healing was assessed using micro-CT (Scanco Medical Ag or PerkinElmer). The anesthetized animal was scanned for two minutes with the PerkinElmer Quantum FX micro-CT at high resolution with a voxel size of 10 μM at 90 kV and 88 uA and an Al 0.5 mm+Cu 0.06 mm filter. The scanning detector rate was 117 fps. The images were analyzed in ImageJ using the BoneJ package. Morphometric parameters were quantified in an ROI that included just the fracture callus. Trabecular thickness (Tb.Th.), trabecular spacing (Tb. Sp.), total volume (TV), and volume of calcified callus (BV) were calculated. Statistical analysis was performed using a one-way analysis of variance (ANOVA) and a Dunnett's post-hoc analysis with significance reported at the P value of 0.05. All animal experiments were performed in accordance with protocols approved by Purdue University's Institutional Animal Care and Use Committee (IACUC). Rats were scanned in AMI after being anesthetized with isoflurane. […]
substance,measurement,setting,value
"rhBMP-2: bone morphogenetic protein-2; clinically approved drug, current standard of care, positive control (10 μg)",change of bone graft granules on micro-CT,"bone graft matrix, eight weeks",caused some of the granules to fuse
same,spinal fusion (manual palpitation),"bone graft matrix, eight weeks, SEQ ID NO: 2 33 nmol/kg twice a week, rhBMP-2 10 μg",no fusion
same,BMD of the bone bridges formed during the fusion,"micro-CT, FIG. 17",did not generate enough mineralized tissue to be quantifiable
same,spinal fusion (micro-CT),"mineralized collagen scaffold, eight weeks of treatment",none of the treatments had fused
same,ossification on micro-CT,"plain collagen matrix soaked with rhBMP-2 (10 μg), eight weeks","did ossify, but not in as controlled of a manner as those treated with a compound of SEQ ID NO: 2"
same,"spinal fusion (micro-CT, manual palpitation)","plain collagen matrix, eight weeks, SEQ ID NO: 2 33 nmol/kg twice a week, rhBMP-2 10 μg soaked in matrix",no fusion
